From US12186294B2, “Modulators of prostate-specific g-protein receptor (PSGR/OR51E2) and methods of using same” (Duke University, priority 2016, dated 2025)

Molecular target: T1, OR51E2 (Homo sapiens, UniProt Q9H255)
T1 construct: expressed in transfected cells; host or cells: Hana3A cells (modified human embryonic kidney cells)
T1 sequence (Q9H255 1-320): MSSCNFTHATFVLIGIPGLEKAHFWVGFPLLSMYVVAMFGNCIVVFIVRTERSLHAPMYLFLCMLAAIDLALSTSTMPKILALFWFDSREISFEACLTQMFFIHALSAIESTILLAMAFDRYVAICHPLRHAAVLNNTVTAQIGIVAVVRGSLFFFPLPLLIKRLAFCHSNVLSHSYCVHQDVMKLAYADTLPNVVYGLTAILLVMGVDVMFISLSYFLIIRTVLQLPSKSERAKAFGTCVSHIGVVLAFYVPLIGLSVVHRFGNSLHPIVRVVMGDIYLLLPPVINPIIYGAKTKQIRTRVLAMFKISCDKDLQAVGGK
Test: in vitro luciferase assay (CRE-Luc) in Hana3A cells transfected with OR51E2
Format: cell-based
Conditions: compared to the 1 mM PA response
Experimental: Hana3A cells (modified human embryonic kidney cells) were cultured in 96 well plates in M10PSF medium. LNCaP human prostate cancer cells were cultured in both RPMI medium and androgen deprived RPMI medium. Hana3A cells were transfected with CRE-Luc (CREB-dependent luciferase (Firefly)) and SV40-RL promoter plasmids, and pCI and OR51E2 plasmids. […] Upon ligand binding, an increase in cAMP drives the expression of Firefly luciferase. Increase in luminescence signal was measured with a luminometer and Optima Data Analysis software. The luminescent signal is directly proportional to receptor activation. A general schematic of a luciferase assay is shown in FIG. 5 and a schematic of the assay used in this Example is shown in FIG. 6.
The top 56 compounds from the VLS list were tested using the in vitro expression and luciferase assay. […] The biologically relevant concentrations of each metabolite were individually determined based on available data in the literature. If no data were available, compounds were tested in the range of 1 nM-100 μM. Responses were normalized to the response with 1 mM propionic acid (PA), a previously identified agonist, and also to a response with no-control.

Efficacy | Compound
0.578 | N[C@H](CO)Cc1c[nH]cn1 [L-Histidinol]
0.898 | O=C(O)[C@@H](O)CO [L-Glyceric acid]
0.570 | Nc1nc2nc(O)[nH]c2c(=O)[nH]1 [8-Hydroxyguanine]
